Here are results for one substance from paper PMC11510805, “In Vivo Effects of a GHR Synthesis Inhibitor During Prolonged Treatment in Dogs” (Pharmaceuticals, 2024).

Chains of the proteins cited; added tags and fusions are not shown.
UniProt P11712, whole entry: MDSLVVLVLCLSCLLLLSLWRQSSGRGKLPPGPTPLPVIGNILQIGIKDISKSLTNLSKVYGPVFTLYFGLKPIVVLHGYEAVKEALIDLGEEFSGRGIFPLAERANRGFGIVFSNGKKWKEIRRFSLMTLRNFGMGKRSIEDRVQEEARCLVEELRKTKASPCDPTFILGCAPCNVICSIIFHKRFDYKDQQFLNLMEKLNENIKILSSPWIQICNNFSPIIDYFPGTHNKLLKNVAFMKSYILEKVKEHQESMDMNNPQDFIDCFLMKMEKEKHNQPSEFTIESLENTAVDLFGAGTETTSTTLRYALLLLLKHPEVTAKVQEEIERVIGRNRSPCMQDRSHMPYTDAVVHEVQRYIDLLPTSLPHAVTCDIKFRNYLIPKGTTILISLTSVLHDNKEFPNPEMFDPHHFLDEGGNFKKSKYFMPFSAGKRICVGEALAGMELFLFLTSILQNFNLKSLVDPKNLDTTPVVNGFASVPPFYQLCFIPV

The target of the data set is CYP2C9 (Homo sapiens, UniProt P11712). Conditions: human liver microsomes. A general note: Liver microsomes are vesicles of endoplasmic reticulum, rich in cytochrome P450 enzymes.

pIC50: −log10 of the molar value.

As to Sulphaphenazole, the “CYP2C9 Imax of reference inhibitor” value turned out to be 98%. In addition, the pIC50 (read-out: CYP2C9 IC50) is 6.80.

As usually defined, the pIC50 is the negative decadic logarithm of the IC50, by convention in mol/L.
